Experiments:
[1] = molecular target: Mu-type opioid receptor (Homo sapiens, UniProt P35372); test: Displacement of [3H]DAMGO from human mu opioid receptor transfected in CHO cell membranes after 60 mins
[2] = molecular target: Nociceptin receptor (Homo sapiens, UniProt P41146); test: Agonist activity at human nociceptin opioid receptor transfected in CHO cell membranes assessed as stimulation of [35S]GTPgammaS binding after 60 mins by scintillation counting analysis

## O=C1Cc2ccccc2N1C1CCN([C@H]2CC[C@@H]3CCCc4cccc2c43)CC1
[1]
  Ki: 42 nM
[2]
  EC50: 85 nM

Reference: BindingDB's records for 24657054
